Assay [1] addresses Mu-type opioid receptor (Bos taurus) (UniProt P79350). The assay is described as follows: % Recovery of 0.5 nM [3H]- bremazocine binding to Opioid receptor mu 1(unwashed)at a concentration of 4.4 nM.
Assay [2] shares this target. The assay is described as follows: % Recovery of 0.5 nM [3H]- bremazocine binding to Opioid receptor mu 1(protected)at a concentration of 4.4 nM.
The target is the same in assay [3]. The assay is described as follows: % Recovery of 0.5 nM [3H]- bremazocine binding to Opioid receptor mu 1(washed)at a concentration of 4.4 nM.
For assay [4] the target is unchanged. The assay is described as follows: % Recovery of 0.5 nM [3H]- bremazocine binding to Opioid receptor mu 1(protected)at a concentration of 6 nM.
For assay [5] the target is unchanged. Description: % Recovery of 0.5 nM [3H]- bremazocine binding to Opioid receptor mu 1(unwashed)at a concentration of 6 nM.
The target is the same in assay [6]. The assay is described as follows: % Recovery of 0.5 nM [3H]- bremazocine binding to Opioid receptor mu 1(washed)at a concentration of 6 nM.
The target is the same in assay [7]. Description: % Recovery of 0.5 nM [3H]- bremazocine binding to Opioid receptor mu 1(protected)at a concentration of 5 nM.
Assay [8] has the same target. The assay is described as follows: % Recovery of 0.5 nM [3H]- bremazocine binding to Opioid receptor mu 1(unwashed)at a concentration of 5 nM.

The chains behind the UniProt entries cited, without tags or fusion partners.
UniProt P79350, whole entry: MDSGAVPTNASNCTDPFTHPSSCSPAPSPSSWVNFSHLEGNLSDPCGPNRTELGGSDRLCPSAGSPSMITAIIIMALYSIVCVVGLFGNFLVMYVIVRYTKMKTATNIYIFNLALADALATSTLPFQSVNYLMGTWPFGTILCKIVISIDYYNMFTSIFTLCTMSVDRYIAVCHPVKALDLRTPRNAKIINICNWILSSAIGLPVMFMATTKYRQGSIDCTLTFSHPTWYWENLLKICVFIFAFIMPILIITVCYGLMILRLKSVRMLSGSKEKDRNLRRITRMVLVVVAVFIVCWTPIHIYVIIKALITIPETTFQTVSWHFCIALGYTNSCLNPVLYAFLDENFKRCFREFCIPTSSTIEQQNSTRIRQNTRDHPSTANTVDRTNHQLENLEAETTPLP

Here are results for three compounds from ChEMBL document CHEMBL1124886, “Electrophilic alpha-methylene-gamma-lactone and isothiocyanate opioid ligands related to etorphine” (1990).

As to `CO[C@]12C=C[C@@]3(CC1[C@H](C)N=C=S)[C@H]1Cc4ccc(O)c5c4[C@@]3(CCN1CC1CC1)[C@H]2O5` (stereo partly drawn), the Recovery in assay [1] stood at 23%; in assay [2] it was 51%; in assay [3], 52%.

As to `CO[C@]12C=C[C@@]3(CC1[C@@H](C)N=C=S)C1Cc4ccc(O)c5c4C3(CCN1CC1CC1)[C@H]2O5` (stereo partly drawn), the Recovery came out at 28% in assay [4], 16% in assay [5] and 44% in assay [6].

Take `C=C1C[C@H]([C@H]2C[C@@]34C=C[C@]2(OC)[C@@H]2Oc5c(O)ccc6c5[C@@]23CCN(CC2CC2)[C@@H]4C6)OC1=O`: the Recovery in assay [7] stood at 47%; in assay [8] it was 13%.
